Structures are written as SMILES. The list shows a part of the results, in another mix than the full data. Calls of active or inactive are those of the source.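 The calls were made as follows: active = response, share of CD8 T cells binding vesicles, and their 90th percentile fluorescence all below set limits (cut at about 80% in these data, passing the limit was not always enough); inactive = the rest, inconclusive results apart.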

This assay in a line: murine CD8 T cell vesicle adhesion modulation – mouse 2C CD8+ T cells, flow cytometry, primary screen (AID 2052).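 Also: values below 100% mean blocked vesicle binding to the CD8+ T cells.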 Particulars: 2C CD8+ T cell-vesicle binding, at 7 µM, hits give low values. The essentials:
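Assay system – 2C mouse CD8+ T cells · Also added – QL9-loaded Drosophila micro-vesicles · Timing – Cell–vesicle co-incubation 1.5 h at 37 °C, staining 20 min on ice · Signal – flow cytometry of vesicle-bound cells · Measure – percent CD8+ FL2 mean versus row control · Controls – Peptide-free naked vesicles (low) and QL9 vesicles with 0.7% DMSO vehicle (high)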
On the technique in general: In flow cytometry, cells or beads pass a laser one at a time.
In the case of `C[N+]1=C2C=CC=CC=C2SC12C([N+](=O)[O-])=CC([N+](=O)[O-])=C[C-]2[N+](=O)[O-]` (stereo unspecified), the response (vesicle binding) was active: 48.2%.

(Values after PubChem BioAssay AID2052 (NMMLSC, 2009).)
